The results in this text go back to patent US9273088B2, “Ginsenoside derivative compounds and the use thereof in protection against ischemia/reperfusion injury” (Macau University of Science and Technology, priority 2013, dated 2016).

This series concerns H9c2 cells. In words: Cytotoxicity study in normoxia condition, MTT cell viability assay. Type of series: cell-based, rat. The protocol:
Embryonic rat heart derived cell line H9c2 (2-1), shorted in H9c2 cells, was purchased from ATCC (CRL-1446), which is a permanent cell line and derived from embryonic BDIX rat ventricular heart tissue. Dulbecco's Modified Eagle Medium, Fetal Bovine Serum, and Penicillin-Streptomycin-Glutamine, 2.5% Trypsin/EDTA solution, Phosphate-buffered saline from GIBCO® (Invitrogen™) were used.
H9c2 cells were cultured in DMEM medium supplemented with 10% fetal bovine serum, 1% glutamine, 50 U/ml penicillin and […] streptomycin. The culture atmosphere for H9c2 cells was 95% air with 5% carbon dioxide (CO2) at 37.0° C. The medium was replaced every 2-3 days. A stock of cells was grown in a 100 cm^2 culture dish and split before confluence at a subcultivation ratio of 1:4. Cells used for experiments were seeded at a density of 1.0×10^4 cells/well in a 96-well culture plate, and cells in each well were allowed to grow to 60-80% confluence within 24 h prior to drug treatment.
The cell viability was measured using the MTT colorimetric assay, which was based on the conversion of MTT to formazan crystals by mitochondrial dehydrogenase. Briefly, H9c2 cells were seeded in 96-well plates at 1×10^4 cells/well and incubated at 37° C. for 48 h. The cells were then treated with DMSO (H/R control), diazoxide (50 μM). Compounds A-G (at two concentrations of 12.5 μM or 25 μM) and incubated under hypoxia condition. The cells without any treatment and incubated under normoxia condition were used as normal control. At the end of the treatments, […] MTT (5 mg/ml) was added for 4 h and then […] MTT buffer (10% SDS solution, pH7.4) was added to each well. After overnight incubation and 30 s vibration, the absorbance was read at 490 nm wavelength. Results were expressed as the ratio of the number of viable cells with treatments relative to that of the normoxia control. […]
Results were expressed as the ratio of the number of viable cells with treatments relative to that of the positive control.
For orientation: Tetrazolium assays rely on reduction of a dye to a coloured formazan, in cell work by metabolically active cells.

In the case of “3-O-[β-D-glucopyranosyl(1→2)-β-D-glucopyranosyl]-3β,12β,20(S),25-tetra-hydroxydammar-23-ene [Compound B]”, the “cytotoxicity under normoxia condition” value by setting is: (12.5 μM, vs untreated control) “no statistically significant cytotoxicity”; (25 μM, vs untreated control) “no statistically significant cytotoxicity”; (equivalent dosages) “no significant cytotoxicity”.
